Laboratory results reported in article PMC11370000 (Nature cell biology, 2023).

Target: GST-RCC1L (amino acids 32-464) (human, UniProt Q96I51 32-464)
Test: pull-down

B1: 6xHis-NME6 (NME6-WT, recombinant) (natural protein, human, UniProt O75414-4 1-194, looked up)
chain: MTQNLGSEMASILRSPQALQLTLALIKPDAVAHPLILEAVHQQILSNKFLIVRMRELLWRKEDCQRFYREHEGRFFYQRLVEFMASGPIRAYILAHKDAIQLWRTLMGPTRVFRARHVAPDSIRGSFGLTDTRNTTHGSDSVVSASREIAAFFPDFSEQRWYEEEEPQLRCGPVCYSPEGGVHYVAGTGGLGPA
B1: binds.
